One series deals with Merino sheep skin. The experiment in a line: Pour-on carrier/vehicle sheep skin irritation studies (histological scoring). The series is classed as in vivo. As for the experimental part:
Studies were conducted to investigate and characterise the changes occurring in Merino sheep skin following the application of a range of candidate pour-on formulation components in order to discern safe carriers. Chemicals, emollients, wool grease derivatives and a wide range of formulations were applied (in 1 mL volumes) to each of 18 sites on the back and flanks of 15 recently shorn Merino sheep.
In the first study, skin samples were collected at necropsy 3½weeks after application. In subsequent studies, skin samples were collected 2 weeks after application. Standard haematoxylin and eosin stained sections were prepared from each piece of treated skin. A histological scoring system was devised to allow comparison of treatments. Each skin was assessed for the degree of hyperkeratosis, acanthosis and inflammatory cell infiltrate of the superficial dermis and given a rating score from 0–15. A score of 0=no change through to a score of 15 for very severe damage. Normal skin scored 2–4, >4 was abnormal and >7 was very abnormal. Treatments yielding a score ? 4.5 were considered safe. […]

A short description of series [1]: Example 5: diffusion of 14C-zeta-cypermethrin on sheep skin in a variety of carriers. The following applies: carrier with 10 mg/mL 14C-spiked zeta-cypermethrin, 1 mL/5 kg on backline of sheep; wool at 2, 7.5, 15 cm meridians up to day 14. The method, then: This study compared the amount and rate of diffusion of ^14C-labelled zeta-cypermethrin from the dorsal midline of sheep, when applied in wool grease, in an aqueous formulation and in a range of test carriers.
Each formulation was applied to the backline of three sheep at 1 mL/5 kg body weight. Wool was collected from three 12×12-mm squares chosen at random, along meridian lines drawn 2, 7.5 and 15 cm down the side of each sheep from the backline. The wool samples were collected at 1, 2, 4, 8, 11 and 14 days after treatment, and each day's samples were pooled. The clipped areas were also swabbed. At day 14 after treatment, the wool at the site of application was collected and back and perirenal fat samples were collected. The quantity of zeta-cypermethrin in each sample was measured by liquid scintillation counting.

Series [2] is described as follows: Example 12: physical characteristics and freezing points of solvents and solvent combinations. The series is classed as physicochemical. Conditions: vehicle alone. As for the experimental part:
The physical characteristics of various individual solvents and solvent combinations were determined.

Where [3] appears, read: applied to skin of recently shorn Merino sheep, histology.

“Also recorded” adds a separate entry of the source.

With cetearyl octanoate, the “Mean skin irritation scores” value with Merino sheep skin (1 mL applied to skin of recently shorn Merino sheep, histological score 0-15 (0 no change, 15 very severe damage; normal 2-4, >4 abnormal, >7 very abnormal)) is on record as 4.3. In addition, the “skin irritancy / histological dermatitis (in words)” value in the series on Merino sheep skin (setting [3]) is “mild to moderate dermatitis”.
For the substance glyceryl tri caprylate/caprate [GTCC], in the series with Merino sheep skin (in vivo), the “Mean skin irritation scores” value was determined as 2 and the “skin irritancy / histological dermatitis (in words)” value is “non-irritant”. Moreover, the “spread of zeta-cypermethrin from the backline (in words)” value in series [1] is “modest spread; also recorded: better spread”. Also, in series [2], the freezing point was −5 to −13 °C.
Turning to propoxy 15 stearyl alcohol, the “skin irritancy / histological dermatitis (in words)” value with Merino sheep skin (setting [3]) was “mild to moderate dermatitis”.

These data come from patent US6955818B1, “Pour-on formulations” (Eli Lilly and Company, priority 1999, dated 2005).
